# AlphaSeq binding of Ab-14 light chain variants to a spike HR2 peptide

Data: MIT Lincoln Laboratory AlphaSeq set, Li et al. 2023, doi:10.1038/s41467-023-39022-2, as distributed in FLAb.

All variants were tested on one target, the spike HR2 peptide PDVDLGDISGINAS (SARS-CoV-2).

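These sequences belong to a second round, designed from the earlier measurements on random variants of the parent. Their group label is 14L_En_HC (En: ensemble of fine-tuned language models; HC: hill climbing; a sequence that several methods proposed may carry one label only). The assay is AlphaSeq: two haploid yeast populations carry antibody and antigen on their surface. Mating (16 h, 30 °C) was followed by selection of diploids and sequencing of their barcodes. Read counts were normalised to the haploid input and turned into Kd by a linear fit to BCL2-family pairs of known affinity, for each replicate. There are six technical replicates.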

Parent: Ab-14, a human scFv built as VH, the linker GGGGSGGGGSGGGGS, VL. Only the CDRs of the light chain vary.
VH: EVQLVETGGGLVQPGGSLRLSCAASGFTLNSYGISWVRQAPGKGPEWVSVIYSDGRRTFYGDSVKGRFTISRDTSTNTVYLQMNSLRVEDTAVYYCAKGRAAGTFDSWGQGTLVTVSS
VL: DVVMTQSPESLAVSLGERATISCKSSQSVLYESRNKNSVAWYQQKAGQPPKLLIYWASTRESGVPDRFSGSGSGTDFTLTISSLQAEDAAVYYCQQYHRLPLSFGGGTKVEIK

Each variant is given by its three light chain CDRs, as the data file delimits them; those of the parent are KSSQSVLYESRNKNSVA, WASTRES, QQYHRLPLS. Numbers give log10(Kd / nM), so 0 is 1 nM and 3 is 1 µM. Smaller is tighter. Where no diploid with the target was found in that replicate, the entry reads "ND": below detection, most likely a poor binder, though not proof of it. Values of this round are not directly comparable with the first-round values of the same sequences.

KLPLATMQESVSKNNVA / ELSTRGN / QQYHRLPLS: 0.85, 0.66, 0.59, 0.81, 0.84, 0.90 (controls 3 of 18).
KISWNFYIESRNLNSVA / EMTTREY / QDYDRLPLS: ND, ND, ND, ND, ND, ND (controls 0 of 18).
MFSQSVMYGSFYRNSVA / QTSTREQ / QQYDRLPLS: 1.16, 0.57, 0.43, 1.12, 0.61, 0.63 (controls 0 of 18).
TMGQVMNYESRNKNSVA / QTSTREE / QDYDRLPLS: ND, 2.61, 2.01, ND, 2.16, 2.32 (controls 0 of 18).
SLSLSMAFLSRNKNSVA / ENSTRES / QQYHRLPLL: ND, 2.47, 2.05, ND, ND, ND (controls 0 of 18).
KLYQSMGYLSHNKDSIA / DMSRREN / QQYHRLPLS: 0.02, -0.19, -0.19, -0.33, -0.27, -0.13 (controls 2 of 18).
KLLQNVMTEGKNRNNVA / HMTMREQ / QQYWRLPLS: 0.25, 0.10, 0.16, -0.05, 0.12, 0.44 (controls 0 of 18).
SIYDATGMESRNKNPIA / DVSTRPS / QQYDRLPLS: 0.27, ND, ND, ND, ND, ND (controls 0 of 18).
ALGTSTLEESRNKNSVA / EMSLREE / QSYNRLPLS: 0.98, 1.14, 0.89, 1.05, 1.17, 1.26 (controls 2 of 18).
TISQSAQLESHNKNSVA / DLNVRGS / QQYDRLPLS: 0.35, 0.53, 0.37, 0.13, 0.67, 0.62 (controls 0 of 18).
KISMLQRYESQNKDSIA / EMSRREN / QQYHRLPLS: 0.43, 0.33, 0.36, 0.18, 0.34, 0.37 (controls 1 of 18).
TISQSFLMENQFKNSVA / QASTRET / QCYDRLPLS: 1.98, 1.24, 2.14, 1.36, 1.29, 1.75 (controls 0 of 18).
MISDLTSYGSRNKNSVA / DLSTRGS / QQYHRLPLS: -0.10, -0.32, -0.11, -0.40, -0.42, -0.17 (controls 1 of 18).
ILYESVGTLSRNKNSVA / DNSTRED / QQYDRLPLS: 2.22, 2.30, 3.01, 1.83, 2.27, 2.93 (controls 0 of 18).
NVGQLMDGESRNKNSVA / HQSTRED / QHYHRLPLI: ND, ND, ND, ND, ND, ND (controls 0 of 18).
KLRQVTEWESFDKNSVA / QTETREN / QDYDRLPLS: ND, 2.34, ND, 2.44, ND, ND (controls 0 of 18).
KIAFNSLIESKNLNSVA / EMTTREY / QDYDRLPLS: 1.45, 3.32, 2.18, 2.56, 1.67, 1.44 (controls 1 of 18).
SIYDATMMESRNKNPIA / DVSTRPS / QQYDRLPLS: 0.96, 0.56, 0.53, 0.27, 0.33, 0.61 (controls 2 of 18).
TISTSMRYESTLKNAIA / NAQTRES / QQYHRLPIS: 0.57, 0.33, 0.40, 0.05, 0.75, 0.59 (controls 1 of 18).
MFSQLFMYGSRNKHSVA / QASTRES / QQYDRLPLI: 1.16, 1.92, 1.44, 0.97, 0.75, 1.43 (controls 1 of 18).
IVSQSVLGESRNKNSVA / QTSEREY / QQYDRLPLS: 0.61, 0.94, 0.60, 0.27, 0.90, 0.67 (controls 0 of 18).
ALSQSMDMTSRNVNSVA / DLTCREN / QQYHRLPLS: 0.81, 0.64, 0.60, 0.33, 0.72, 0.88 (controls 5 of 18).
KISMSYRYESQEKNSIA / EESTRAE / QSYHRLPLS: 1.60, 1.24, 1.10, 1.06, 1.25, 1.48 (controls 1 of 18).
MFSQLTYMGSRARNAVA / QAETRVN / QQYHHLPLI: 1.14, 1.19, 1.10, 1.39, 0.91, 1.05 (controls 0 of 18).
KLSATYRFESQNKNSIA / EMTTREQ / QCYHRLPLS: 1.52, 2.42, ND, 2.04, 0.90, 3.21 (controls 0 of 18).
SLAESSHMESRNKNSVA / DNSTRES / QHYHRLPLS: ND, 2.43, 1.14, 0.91, 1.64, 0.90 (controls 2 of 18).
MMSMGYLGGMRAKNNVA / QEETREK / QQYFRLPLI: ND, 2.21, ND, ND, 2.95, 2.10 (controls 1 of 18).
SIYDATRMESRNKNPIA / DVSTRPS / QQYDRLPLS: 0.02, 0.14, 0.18, 0.23, 0.14, 0.54 (controls 1 of 18).
TIGQSVHETSRIKNSVA / HASTREE / QQYDRLPLS: 0.34, 0.44, 0.14, 0.02, 0.24, 0.28 (controls 1 of 18).
MLSDLVKMGSRNTNSVA / DNSTRGS / QQYDRLPLS: 1.98, 1.56, 2.06, 1.43, 1.84, 2.39 (controls 0 of 18).
TIGQMFHGESRNRNSVA / QASTRES / QSYDRLPLS: 1.25, 1.26, 0.94, 1.01, 1.10, 1.20 (controls 4 of 18).
HISEMMYYQSRNKNNIA / EMSTRER / QHYHRLPLS: 0.67, 0.33, -0.44, 0.91, -0.24, -0.27 (controls 2 of 18).
KLSQVTHSESRNKNSIA / EMVTREP / QQYDRLPLS: 0.18, 0.47, -0.10, 0.13, -0.31, 0.29 (controls 0 of 18).
KIGMQVTYQSTVNNAIA / QMETREE / QQYHRLPLS: 0.91, 0.89, 1.15, 0.79, 0.94, 1.25 (controls 0 of 18).
KLRQLTHIESFNKNNVA / EMTTREV / QSYDRLPLS: 2.11, 2.14, 1.44, 1.75, 1.67, 1.72 (controls 1 of 18).
KLRQSYHIESFNKNNVA / EMTTRES / QSYDRLPLS: 1.51, 1.24, 1.17, 1.82, 1.19, 1.40 (controls 1 of 18).
TLVQSVMGSSRTRNSVA / NAETRED / QHYHRLPLS: 1.28, 0.91, 0.63, 0.67, 0.63, 0.65 (controls 2 of 18).
IISQSVLGEYHNKNNVA / QTSERGS / QQYDRLPLS: -0.02, 0.28, 0.37, -0.06, -0.40, 0.17 (controls 0 of 18).
KISYNYLIESKNLNSVA / EMTTREY / QDYDRLPLS: ND, ND, ND, ND, ND, ND (controls 1 of 18).
TISGMANYESTNKNSVA / ELTTRGQ / QQYERLPLS: 1.64, 1.01, 1.65, 0.80, 1.14, 0.87 (controls 0 of 18).
TLMQVGGYEMNDHNSIA / DLRTREN / QQYHRLPLS: 1.89, 1.41, 0.82, 1.00, 1.35, 1.12 (controls 0 of 18).
QLSQVTHSESRNKNSIA / EMVTREV / QQYDRLPLS: 1.22, 1.31, 0.88, 1.03, 1.70, 1.64 (controls 0 of 18).
TLMQVGGYEMNAHNSIA / DLRTREN / QQYHRLPLS: 1.16, 1.11, 0.64, 1.17, 1.54, 1.41 (controls 1 of 18).

The 6 strongest on average among those seen in every replicate, once more:

{"CDR-L1": "MISDLTSYGSRNKNSVA", "CDR-L2": "DLSTRGS", "CDR-L3": "QQYHRLPLS", "log10 Kd (nM) by replicate": "-0.10, -0.32, -0.11, -0.40, -0.42, -0.17", "empty controls": "1/18"}
{"CDR-L1": "KLYQSMGYLSHNKDSIA", "CDR-L2": "DMSRREN", "CDR-L3": "QQYHRLPLS", "log10 Kd (nM) by replicate": "0.02, -0.19, -0.19, -0.33, -0.27, -0.13", "empty controls": "2/18"}
{"CDR-L1": "IISQSVLGEYHNKNNVA", "CDR-L2": "QTSERGS", "CDR-L3": "QQYDRLPLS", "log10 Kd (nM) by replicate": "-0.02, 0.28, 0.37, -0.06, -0.40, 0.17", "empty controls": "0/18"}
{"CDR-L1": "KLSQVTHSESRNKNSIA", "CDR-L2": "EMVTREP", "CDR-L3": "QQYDRLPLS", "log10 Kd (nM) by replicate": "0.18, 0.47, -0.10, 0.13, -0.31, 0.29", "empty controls": "0/18"}
{"CDR-L1": "HISEMMYYQSRNKNNIA", "CDR-L2": "EMSTRER", "CDR-L3": "QHYHRLPLS", "log10 Kd (nM) by replicate": "0.67, 0.33, -0.44, 0.91, -0.24, -0.27", "empty controls": "2/18"}
{"CDR-L1": "KLLQNVMTEGKNRNNVA", "CDR-L2": "HMTMREQ", "CDR-L3": "QQYWRLPLS", "log10 Kd (nM) by replicate": "0.25, 0.10, 0.16, -0.05, 0.12, 0.44", "empty controls": "0/18"}

The authors' rule: three or more of the six replicates give a measured affinity, fewer mean a poor binder. Empty control strains, which show no peptide, gave a signal in 4% of pairings with all light chain designs; the median was 2.64 and 95% of these signals were weaker than 1.59. No background was subtracted. Also given: how often the same scFv was detected with the empty control strains.